# Ab-95 light chain CDR variants: yeast mating affinities

The target is the same throughout: PDVDLGDISGINAS, from the HR2 region of SARS-CoV-2 spike.

The variants keep the heavy chain, the linker and the frameworks of Ab-95 (scFv order VH, a (GGGGS)3 linker, VL).
VH: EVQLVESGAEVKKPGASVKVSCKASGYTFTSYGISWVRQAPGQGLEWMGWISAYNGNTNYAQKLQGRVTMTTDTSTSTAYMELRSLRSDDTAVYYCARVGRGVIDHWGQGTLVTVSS
VL: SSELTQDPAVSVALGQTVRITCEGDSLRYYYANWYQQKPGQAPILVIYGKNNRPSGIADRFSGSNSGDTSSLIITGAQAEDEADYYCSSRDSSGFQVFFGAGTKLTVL

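The parent was found by panning a naive human phage display library on the peptide. Variants in AAYL52 differ from the parent at up to three CDR positions; double and triple changes were sampled at random. AlphaSeq pools MATa yeast showing the antibodies with MATalpha yeast showing the peptide. Mating (16 h, 30 °C) was followed by selection of diploids and sequencing of their barcodes. Read counts were normalised to the haploid input and turned into Kd by a linear fit to BCL2-family pairs of known affinity, for each replicate. Each pool was mated in three replicate cultures.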

Changes read parent residue, position, new residue, counted from the first residue of the VL shown.
Only single mutants are listed, position by position.
The Kd shown is the geometric mean over detected replicates; a lower Kd is a better binder.
An entry "nd" has no value in the source: the pair was not observed among the diploids in any replicate. This suggests poor binding but is not conclusive.

changes	apparent Kd	detected	empty controls
E23F	2.8 µM	3 of 3	1 of 9
E23I	150 nM	3 of 3	2 of 9
E23C	990 nM	3 of 3	2 of 9
E23W	180 nM	3 of 3	2 of 9
E23M	150 nM	3 of 3	3 of 9
E23K	32 nM	3 of 3	4 of 9
E23D	610 nM	3 of 3	3 of 9
E23N	48 nM	3 of 3	6 of 9
E23H	46 nM	3 of 3	6 of 9
E23P	1.5 µM	1 of 3	3 of 9
E23S	34 nM	3 of 3	5 of 9
E23L	410 nM	3 of 3	0 of 9
E23G	56 nM	3 of 3	0 of 9
E23A	3.7 µM	2 of 3	0 of 9
E23Y	290 nM	3 of 3	5 of 9
E23T	27 nM	3 of 3	5 of 9
E23R	54 nM	3 of 3	5 of 9
E23Q	nd	0 of 3	0 of 9
E23V	170 nM	3 of 3	4 of 9
G24A	430 nM	3 of 3	3 of 9
G24D	1.4 µM	3 of 3	2 of 9
G24C	26 µM	2 of 3	3 of 9
G24I	730 nM	3 of 3	3 of 9
G24S	310 nM	3 of 3	1 of 9
G24Q	7.8 µM	3 of 3	3 of 9
G24R	3.1 µM	1 of 3	3 of 9
G24N	8.2 µM	3 of 3	3 of 9
G24K	2.2 µM	3 of 3	4 of 9
G24L	3.0 µM	2 of 3	3 of 9
G24M	12 µM	3 of 3	0 of 9
G24W	47 µM	2 of 3	4 of 9
G24F	1.1 µM	3 of 3	3 of 9
G24E	220 µM	2 of 3	2 of 9
G24P	22 µM	1 of 3	2 of 9
G24T	2.0 µM	3 of 3	2 of 9
G24V	970 nM	3 of 3	1 of 9
G24H	1.3 µM	2 of 3	1 of 9
G24Y	6.3 µM	2 of 3	3 of 9
D25Y	1.1 µM	3 of 3	4 of 9
D25I	230 nM	3 of 3	2 of 9
D25V	110 nM	3 of 3	5 of 9
D25G	120 nM	3 of 3	3 of 9
D25N	160 nM	3 of 3	2 of 9
D25C	61 nM	3 of 3	1 of 9
D25E	74 nM	3 of 3	3 of 9
D25R	74 nM	3 of 3	3 of 9
D25P	83 nM	3 of 3	0 of 9
D25H	82 nM	3 of 3	0 of 9
D25K	69 nM	3 of 3	1 of 9
D25A	54 nM	3 of 3	2 of 9
D25F	770 nM	3 of 3	5 of 9
D25T	150 nM	3 of 3	5 of 9
D25S	87 nM	3 of 3	5 of 9
D25M	160 nM	3 of 3	2 of 9
D25W	1.0 µM	3 of 3	4 of 9
D25Q	74 nM	3 of 3	5 of 9
D25L	230 nM	3 of 3	0 of 9
S26P	130 nM	3 of 3	4 of 9
S26G	930 nM	2 of 3	1 of 9
S26R	240 nM	3 of 3	3 of 9
S26W	430 nM	3 of 3	6 of 9

Top 10 of the variants detected in all replicates, tightest first:

| changes | apparent Kd | detected | empty controls |
|---|---|---|---|
| E23T | 27 nM | 3 of 3 | 5 of 9 |
| E23K | 32 nM | 3 of 3 | 4 of 9 |
| E23S | 34 nM | 3 of 3 | 5 of 9 |
| E23H | 46 nM | 3 of 3 | 6 of 9 |
| E23N | 48 nM | 3 of 3 | 6 of 9 |
| E23R | 54 nM | 3 of 3 | 5 of 9 |
| D25A | 54 nM | 3 of 3 | 2 of 9 |
| E23G | 56 nM | 3 of 3 | 0 of 9 |
| D25C | 61 nM | 3 of 3 | 1 of 9 |
| D25K | 69 nM | 3 of 3 | 1 of 9 |

As a blank, each scFv also met three strains without target: over library AAYL52, 28% of these pairings were detected, typically at 8.2 µM and seldom below 800 nM. For each scFv, signals with the empty controls are counted beside the result.

The measurements come from Engelhart et al. 2022 (doi:10.1038/s41597-022-01779-4) through the FLAb antibody collection.